Measured values as given in PubChem BioAssay AID2520 (Sanford-Burnham Center for Chemical Genomics, 2010).
The list shows a part of the results, in another mix than the full data. Activity calls are given as the source filed them.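 The calls were made as follows: active = activation more than six SD over the plate average, tested at 20 µM; inactive = the rest.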

Amino acid sequences for entries named in this document (tags omitted).
UniProt P35414, whole entry: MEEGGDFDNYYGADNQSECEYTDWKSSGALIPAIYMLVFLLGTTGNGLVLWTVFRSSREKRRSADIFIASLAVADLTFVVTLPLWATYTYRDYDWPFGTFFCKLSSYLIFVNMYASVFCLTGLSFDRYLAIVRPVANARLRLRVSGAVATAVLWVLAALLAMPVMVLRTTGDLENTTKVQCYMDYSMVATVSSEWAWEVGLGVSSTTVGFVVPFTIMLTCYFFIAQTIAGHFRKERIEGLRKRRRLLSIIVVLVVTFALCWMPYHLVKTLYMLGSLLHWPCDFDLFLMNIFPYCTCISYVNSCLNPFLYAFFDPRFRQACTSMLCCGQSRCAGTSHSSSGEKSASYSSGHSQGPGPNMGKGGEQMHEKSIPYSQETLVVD

target: Apelin receptor (Homo sapiens) (UniProt P35414); experiment: APJ activation via beta-arrestin recruitment – CHO-K1 cells, PathHunter beta-arrestin, luminescence, primary screen (AID 2520); settings: at 20 µM, hits give high values, 0% DMSO wells, 100% apelin
Method in brief: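 Assay system: CHO-K1 cells stably expressing ProLink-tagged human APJ and arrestin–beta-gal acceptor. Compound dosing: 20 µM single point, 1% DMSO. Times: 16-18 h seeding, 90 min dark compound exposure, 60 min detection. Detection: beta-gal luminescence. Evaluation: APJ–arrestin association signal. Controls: negative DMSO alone, positive Apelin-13 at 10 nM.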

| SMILES | activation |
| --- | --- |
| O=[N+]([O-])c1cc([N+](=O)[O-])c(-n2nnc3ccccc32)c([N+](=O)[O-])c1 | inactive: 0.624% |
| Cc1ccc(C)c(NP(C)(=O)Oc2ccccc2)c1 (configuration not stated) | inactive: -0.101% |
| CP(=O)(Nc1cccc(Br)c1)Oc1ccccc1 (configuration not stated) | inactive: -2.56% |
| Cc1cc(C)cc(OP(C)(=O)Nc2ccccn2)c1 (configuration not stated) | inactive: -2.14% |
| COc1ccccc1OP(C)(=O)Nc1cccc(Br)c1 (configuration not stated) | inactive: -3.33% |
| CCOC(=O)c1ccc(NP(C)(=O)Oc2cc(C)cc(C)c2)cc1 (configuration not stated) | inactive: -0.0284% |
| Cc1cc(C)cc(OP(C)(=O)Nc2ccc(C)cc2C)c1 (configuration not stated) | inactive: 0.596% |
| CC1=NCCc2c1[nH]c1ccccc21.O=[N+]([O-])c1cc([N+](=O)[O-])c(O)c([N+](=O)[O-])c1 | inactive: 0.352% |
| O=C(O)c1cccc(Nc2c([N+](=O)[O-])cc([N+](=O)[O-])cc2[N+](=O)[O-])c1 | inactive: -5.71% |
| Cc1ccc(NP(C)(=O)Oc2ccccc2)c(C)c1 (configuration not stated) | inactive: 0.758% |
| COc1ccccc1OP(C)(=O)Nc1ccc(C)cc1 (configuration not stated) | inactive: -1.76% |
| CCOC(=O)c1ccc(NP(C)(=O)Oc2ccccc2)cc1 (configuration not stated) | inactive: -0.0372% |
| Cc1cc(C)cc(OP(C)(N)=O)c1 (configuration not stated) | inactive: -2.22% |
| COc1ccc(OP(C)(=O)Nc2cccc(F)c2)cc1 (configuration not stated) | inactive: 2.4% |
| COc1ccccc1OP(C)(=O)Nc1cc(Cl)ccc1C (configuration not stated) | inactive: -3.06% |
| O=[N+]([O-])c1cc([N+](=O)[O-])c(Nc2cccnc2)c([N+](=O)[O-])c1 | inactive: -2.46% |

| SMILES | activation |
| --- | --- |
| Cc1cccc(C)c1OP(C)(N)=O (configuration not stated) | inactive: -2.56% |
| CC(C)(C)c1ccc(OP(C)(=O)Nc2ccc(SC(F)(F)F)cc2)cc1 (configuration not stated) | inactive: -2.24% |
| CCN(CC)CCCOC(=O)C(O)(c1ccccc1)c1ccccc1 | inactive: -4% |
| CCOC(=O)c1ccc(NP(C)(=O)Oc2ccc(OC)cc2)cc1 (configuration not stated) | inactive: -0.297% |
| O=[N+]([O-])c1cc([N+](=O)[O-])c(O)c([N+](=O)[O-])c1.c1ccc(Oc2ccncc2)cc1 | inactive: -7.49% |
| CCOP(C)(=S)SCC(=O)NC(C)C(=O)O (configuration not stated) | inactive: 3.5% |
| CP(=O)(Nc1ccccn1)Oc1ccc(Cl)cc1 (configuration not stated) | inactive: 0.82% |
| CP(=O)(Oc1ccccc1)OC(c1ccccc1)C(F)(F)F (configuration not stated) | inactive: -2.27% |
| Cc1cccc(C)c1OP(C)(=O)Nc1ccc(SC(F)(F)F)cc1 (configuration not stated) | inactive: -0.326% |
| CP(=O)(Nc1ccc(SC(F)(F)F)cc1)Oc1ccc(Cl)cc1 (configuration not stated) | inactive: -5.39% |
| Cc1cc(C)cc(OP(C)(=O)Nc2ccc(SC(F)(F)F)cc2)c1 (configuration not stated) | inactive: 0.558% |
| CCc1ccc(OP(C)(=O)N2CCN(c3ccc([N+](=O)[O-])cc3)CC2)cc1 (configuration not stated) | inactive: 3.31% |
| CP(=O)(NC(=O)Nc1ccccc1)Oc1ccccc1 (configuration not stated) | inactive: -4.74% |
| CP(=S)(Nn1cnnc1)Oc1ccccc1 (configuration not stated) | inactive: 4.37% |
| CP(=O)(Nc1ccccc1Br)Oc1ccccc1 (configuration not stated) | inactive: -0.812% |
| COc1ccccc1OP(C)(=O)Nc1ccccc1 (configuration not stated) | inactive: -4.11% |
